# T1: (His)6MazE
# T1 chain: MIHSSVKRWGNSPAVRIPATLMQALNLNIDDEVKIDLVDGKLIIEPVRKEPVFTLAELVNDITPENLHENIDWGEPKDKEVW
# B1: MazF(His)6 (protein)
# chain: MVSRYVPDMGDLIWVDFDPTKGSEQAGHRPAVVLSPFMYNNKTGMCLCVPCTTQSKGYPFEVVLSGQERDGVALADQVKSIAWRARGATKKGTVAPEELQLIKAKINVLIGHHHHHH
# Biological target: T1, (His)6MazE
protein,measurement,value
B1,cleavage of the mazG mRNA (toeprinting / primer extension),The cleavage of the mazG mRNA was again blocked when MazE was co-added

# Source: patent publication US20130071374, “RNA Interferases and Methods of Use Thereof” (published 2013)
